# Results reported in US20260382688A1, “IMPLANTATION FACILITATOR, AND SCREENING SYSTEM THEREFOR” (published 2026).
# Tests used:
# [1] = test system: embryo and uterine organoid; test: Implantation-like reaction in the in vitro implantation system (fusion of embryo with uterine organoid); conditions: control group 5/22; system without stromal cells 1/22; chi-square test and residual analysis
# Excerpt: Uteri were collected from euthanized C56BL/6 or Rosa26^mCherry/mCherry mice, incised to expose the epithelium, and fragmented in this state. They were then subjected to an enzymatic treatment with Dispase, after which epithelial cells were collected. The epithelial cells were suspended in Matrigel and cultured in Advanced DMEM/F12 medium (WNT medium) supplemented with WNT3A, R-spondin 1, Noggin, EGF, and Hepes pH 7.4 to produce uterine organoids (Turco, 2017, Nature Cell Biology). Uterine tissues from which the epithelial cells had been removed were subjected to an enzymatic treatment with collagenase, after which stromal cells were collected. […] The uterine organoids and stromal cells derived from the C56BL/6 mice were fluorescently labeled with Cell Explorer™ Live Cell Tracking Kit Green Fluorescence (AAT Bioquest) immediately before performing an artificial implantation experiment.
# B6D2F1 female mice were administered CARD HyperOva (Kyudo Co., Ltd.), and further administered human chorionic gonadotropin (ASKA Pharmaceutical Co., Ltd.) 48 hours later. […] The embryos were cultured in KSOM medium (ARK Resource Co., Ltd.) for 3 days to allow them to develop into blastocysts, which were fluorescently labeled with Cell Explorer™ Live Cell Tracking Kit Red Fluorescence (AAT Bioquest) immediately before performing an artificial implantation experiment. […]
# integrin = test: AlphaScreen measurement of ability to form integrin activation complexes; conditions: 8 μM, FIG. 8
# Excerpt: The activity of peptides was detected by measuring their ability to form integrin activation complexes using AlphaScreen.
# embryos = test: Effect on embryo development after transfer to pseudopregnant mice (to E14); conditions: 32 μM Iznm-2 in KSOM medium at transfer
# Protocol: In order to examine the effect of the peptide medicament on embryo development, the following experiment was performed. ICR male mice at 8 weeks of age were vasectomized. ICR female mice in proestrus were mated with the vasectomized male mice, and the female mice having developed a copulation plug on the following day were used as pseudopregnant female mice. Two days after confirming the presence of the copulation plug, B6D2F1 mouse embryos that had developed into blastocysts were transferred to the female mice. The blastocysts were added to KSOM medium supplemented with 32 μM Iznm-2 immediately before the transfer, and the embryos were transferred together with the medium. The amount of the medium injected into the uterus at the time of transfer was 5 μl or less. The embryo transfer was performed in the following manner. The pseudopregnant female mice were anesthetized, and the skin on one side in the dorsum and the abdominal wall of each mouse were incised to expose the uterus to the outside of the body. The uterus was pierced through with a 26-G needle, and the embryos were injected into the thus-formed hole together with the medium using a glass tube. After the transfer, the uterus was returned to the body, and the incision was sutured. The transferred embryos were allowed to develop in the recipient mice until E14. […]
# activated integrin β1 = test: Activated integrin β1 immunofluorescence staining in embryos (blastocysts); conditions: blastocysts without zona pellucida, implantation medium, 3 days; antibody MAB2259Z
# Protocol: B6D2F1 female mice were administered CARD HyperOva (Kyudo Co., Ltd.), and further administered human chorionic gonadotropin (ASKA Pharmaceutical Co., Ltd.) 48 hours later. Thereafter, they were mated with B6D2F1 male mice. The day after next, the female mice were euthanized, and two-cell stage embryos were collected from their oviducts. The embryos were cultured in KSOM medium (ARK Resource Co., Ltd.) for 3 days to allow them to develop into blastocysts, which were fluorescently labeled with Cell Explorer™ Live Cell Tracking Kit Red Fluorescence (AAT Bioquest) immediately before performing an artificial implantation experiment. For artificial insemination, Rosa26^H2B-EGFP/H2B-EGFP male mice at 8 weeks of age or older were euthanized, and sperm was collected from their cauda epididymides and cryopreserved using CARD FERTIUP Mouse Sperm Cryopreservation Solution (Kyudo Co., Ltd.). […]
# (§1) In order to examine whether the peptide medicament Iznm-2 actually causes integrin activation in embryos, blastocysts from which the zona pellucida had been removed were added to glass-bottom dishes (Matsunami) and cultured in implantation medium for 3 days. […] As a result, cells more strongly fluorescently stained as compared to cells in the control group (FIGS. 8A and 8C) were detected in the experimental group (FIGS. 8B and 8D).
# [2] = test system: embryos (mouse blastocysts); test: Attachment of embryos (mouse blastocysts) to glass surface; conditions: control 0/13; p<0.01, chi-square test
# Protocol: B6D2F1 female mice were administered CARD HyperOva (Kyudo Co., Ltd.), and further administered human chorionic gonadotropin (ASKA Pharmaceutical Co., Ltd.) 48 hours later. Thereafter, they were mated with B6D2F1 male mice. The day after next, the female mice were euthanized, and two-cell stage embryos were collected from their oviducts. The embryos were cultured in KSOM medium (ARK Resource Co., Ltd.) for 3 days to allow them to develop into blastocysts, which were fluorescently labeled with Cell Explorer™ Live Cell Tracking Kit Red Fluorescence (AAT Bioquest) immediately before performing an artificial implantation experiment. […]
# as §1
# The rate of attachment was 0/13 in the control group and 13/14 in the Iznm-2-added group, and a significant difference was detected between the two groups (p<0.01, chi-square test, FIG. 10C).
# [3] = test system: maternal bodies (female mice); test: Blood tests of maternal bodies after intraperitoneal administration (liver and kidney indicators); conditions: i.p., 8 μM with respect to total body weight, in corn oil
# Protocol: An excess amount of Iznm-2 was administered intraperitoneally to female mice to examine the side effects of the peptide medicament. In Example 8, 8 μM Iznm-2 was administered together with 5 μl or less of the embryos to the uterus of each mouse. In the present experiment, Iznm-2 was administered in such a manner that the concentration thereof would be 8 μM with respect to the total weight of each mouse. Iznm-2 was dissolved in corn oil. As a control, corn oil without the peptide medicament was administered. Blood samples were collected 24 hours after the administration, and blood components serving as indicators of the condition of the liver and kidney were analyzed.
# transferred embryos = test: Embryo transfer with implantation window shift: implantation and development at E15.5; conditions: 8 μM at embryo transfer
# Protocol: In order to examine the effect of the peptide medicament on embryo transfer, the following experiment was performed. ICR male mice at 8 weeks of age were vasectomized. ICR female mice in proestrus were mated with the vasectomized male mice, and the female mice having developed a copulation plug on the following day were used as pseudopregnant female mice. Two days after confirming the presence of the copulation plug, B6D2F1 mouse embryos that had developed into blastocysts were transferred to the female mice. The blastocysts were added to KSOM medium with 8 μM Iznm-2 or without 8 μM Iznm-2 (control) immediately before the transfer, and the embryos were transferred together with the medium. The amount of the medium injected into the uterus at the time of transfer was 5 μl or less. The blastocysts at 4.5 days post-coitum were transferred to the pseudopregnant mice at 2.5 days post-coitum. With such a difference in the number of days post-coitum, an embryo transfer experiment was performed before the uterus was fully prepared for implantation, thereby reproducing a mismatch between the timing at which the endometrium is ready to accept a fertilized egg and the timing when the fertilized egg reaches the endometrium (the so-called “implantation window shift”), which is one of the causes of infertility (FIG. 12). The embryo transfer was performed in the following manner. The pseudopregnant female mice were anesthetized, and the skin on one side in the dorsum and the abdominal wall of each mouse were incised to expose the uterus to the outside of the body. The uterus was pierced through with a 26-G needle, and the embryos were injected into the thus-formed hole together with the medium using a glass tube. After the transfer, the uterus was returned to the body, and the incision was sutured. The transferred embryos were allowed to develop in the recipient mice until E15.5. Thereafter, the surrogate mice were euthanized, and the embryos were removed from the bodies and the implantation rate and their development were examined (FIGS. 13A and 13B).
compound,measurement,setting,value
CCCCCCCCCCCCCC(=O)N[C@@H](CCCCN)C(=O)N[C@@H](Cc1ccccc1)C(=O)N[C@@H](CCC(=O)O)C(=O)N[C@@H](CCC(=O)O)C(=O)N[C@@H](CCC(=O)O)C(=O)N[C@@H](CCCNC(=N)N)C(=O)N[C@@H](CCSC)C(=O)N[C@@H](CCCNC(=N)N)C(=O)N[C@@H](CS)C(=O)N[C@@H](CCCCN)C(=O)N[C@@H](Cc1c[nH]c2ccccc12)C(=O)N[C@@H](CCSC)C(=O)N[C@H](C(=O)O)[C@@H](C)O,implantation-like reaction rate (number of embryos),[1],6/14
same,integrin activation effect,integrin,approximately 5 fold
CCCCCCCCCCCCCC(=O)N[C@@H](CCCCN)C(=O)N[C@@H](Cc1ccccc1)C(=O)N[C@@H](CCC(=O)O)C(=O)N[C@@H](CCC(=O)O)C(=O)N[C@@H](CCC(=O)O)C(=O)N[C@@H](CCCNC(=N)N)C(=O)N[C@@H](CO)C(=O)N[C@@H](CCCNC(=N)N)C(=O)N[C@@H](CS)C(=O)N[C@@H](CCCCN)C(=O)N[C@@H](Cc1c[nH]c2ccccc12)C(=O)N[C@@H](CCSC)C(=O)N[C@H](C(=O)O)[C@@H](C)O,implantation-like reaction rate (number of embryos),[1],12/19
same,effect on embryo development,embryos,does not greatly affect embryo development
same,embryo development after transfer,embryos; embryos removed at E14,developed normally
same,integrin activation effect,integrin,approximately 14 fold
same,"integrin activation (Active-Integrin β1) in embryos, fluorescent staining versus control group",activated integrin β1,cells more strongly fluorescently stained as compared to cells in the control group
same,rate of attachment of embryos to glass surface,[2],13/14
same,Liver I-BIL,"[3]; 24 hours, corn oil control 0",0.02 mg/dL
same,Liver D-BIL,"[3]; 24 hours, corn oil control 0.02",0.02 mg/dL
same,Liver T-BIL,"[3]; 24 hours, corn oil control 0.08",0.08 mg/dL
same,Kidney CRE,"[3]; 24 hours, corn oil control 0.115",0.12 mg/dL
same,Liver A/G,"[3]; 24 hours, corn oil control 2.05",1.85
same,Liver γ-GT,"[3]; 24 hours, corn oil control 3",3 IU/L
same,Liver ALB,"[3]; 24 hours, corn oil control 3.25",3.3 g/dL
same,Liver & Kidney LAP,"[3]; 24 hours, corn oil control 24",26 IU/L
same,Liver ChE,"[3]; 24 hours, corn oil control 29.5",32.5 IU/L
same,Liver ALT,"[3]; 24 hours, corn oil control 45",38 IU/L
same,Liver ALP,"[3]; 24 hours, corn oil control 419.5",463 IU/L
same,Liver & Kidney TP,"[3]; blood 24 hours after administration, corn oil control 4.85",5.1 g/dL
same,fraction of implanted embryos that developed,"transferred embryos; FIGS. 13C and 13D, the rest did not develop at all",about half of the implanted embryos developed
same,implanted embryos developed normally,transferred embryos; out of 22 implanted (41 transferred),12 embryos
same,transferred embryos successfully implanted,"transferred embryos; out of 41 transferred embryos, 4.5 dpc blastocysts into 2.5 dpc pseudopregnant mice, control: none of 24",22 embryos
